Reference: patent US20230382915A1, “GCN2 AND PERK KINASE INHIBITORS AND METHODS OF USE THEREOF” (Deciphera Pharmaceuticals, LLC, priority 2021, published 2023)

By UniProt entry, the sequences of proteins in these tests, tags left out. Chains listed by the source or under a name are the forms on record and can include a tag or linker. Residues count along the entry.
UniProt Q9NZJ5, 564-1116 with tags or gaps limits assumed: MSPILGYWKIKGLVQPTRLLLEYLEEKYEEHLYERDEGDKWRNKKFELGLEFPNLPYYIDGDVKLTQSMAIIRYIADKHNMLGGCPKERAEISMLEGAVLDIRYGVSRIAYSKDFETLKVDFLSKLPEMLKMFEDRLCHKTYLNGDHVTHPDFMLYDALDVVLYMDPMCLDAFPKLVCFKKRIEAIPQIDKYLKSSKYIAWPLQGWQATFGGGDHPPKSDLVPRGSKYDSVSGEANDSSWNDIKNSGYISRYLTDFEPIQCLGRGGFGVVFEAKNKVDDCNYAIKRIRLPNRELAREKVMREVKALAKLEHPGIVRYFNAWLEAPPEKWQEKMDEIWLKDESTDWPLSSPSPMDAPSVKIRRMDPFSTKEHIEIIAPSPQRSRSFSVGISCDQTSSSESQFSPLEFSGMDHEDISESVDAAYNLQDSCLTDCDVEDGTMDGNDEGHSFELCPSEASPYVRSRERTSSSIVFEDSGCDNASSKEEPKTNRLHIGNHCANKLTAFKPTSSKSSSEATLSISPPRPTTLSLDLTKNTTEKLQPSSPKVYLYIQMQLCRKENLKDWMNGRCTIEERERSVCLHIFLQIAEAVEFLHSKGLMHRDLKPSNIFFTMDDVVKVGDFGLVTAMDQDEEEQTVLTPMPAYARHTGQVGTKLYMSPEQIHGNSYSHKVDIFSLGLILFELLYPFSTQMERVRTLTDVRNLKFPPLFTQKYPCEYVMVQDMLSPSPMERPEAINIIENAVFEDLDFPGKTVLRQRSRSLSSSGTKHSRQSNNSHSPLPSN
UniProt Q9P2K8, whole entry: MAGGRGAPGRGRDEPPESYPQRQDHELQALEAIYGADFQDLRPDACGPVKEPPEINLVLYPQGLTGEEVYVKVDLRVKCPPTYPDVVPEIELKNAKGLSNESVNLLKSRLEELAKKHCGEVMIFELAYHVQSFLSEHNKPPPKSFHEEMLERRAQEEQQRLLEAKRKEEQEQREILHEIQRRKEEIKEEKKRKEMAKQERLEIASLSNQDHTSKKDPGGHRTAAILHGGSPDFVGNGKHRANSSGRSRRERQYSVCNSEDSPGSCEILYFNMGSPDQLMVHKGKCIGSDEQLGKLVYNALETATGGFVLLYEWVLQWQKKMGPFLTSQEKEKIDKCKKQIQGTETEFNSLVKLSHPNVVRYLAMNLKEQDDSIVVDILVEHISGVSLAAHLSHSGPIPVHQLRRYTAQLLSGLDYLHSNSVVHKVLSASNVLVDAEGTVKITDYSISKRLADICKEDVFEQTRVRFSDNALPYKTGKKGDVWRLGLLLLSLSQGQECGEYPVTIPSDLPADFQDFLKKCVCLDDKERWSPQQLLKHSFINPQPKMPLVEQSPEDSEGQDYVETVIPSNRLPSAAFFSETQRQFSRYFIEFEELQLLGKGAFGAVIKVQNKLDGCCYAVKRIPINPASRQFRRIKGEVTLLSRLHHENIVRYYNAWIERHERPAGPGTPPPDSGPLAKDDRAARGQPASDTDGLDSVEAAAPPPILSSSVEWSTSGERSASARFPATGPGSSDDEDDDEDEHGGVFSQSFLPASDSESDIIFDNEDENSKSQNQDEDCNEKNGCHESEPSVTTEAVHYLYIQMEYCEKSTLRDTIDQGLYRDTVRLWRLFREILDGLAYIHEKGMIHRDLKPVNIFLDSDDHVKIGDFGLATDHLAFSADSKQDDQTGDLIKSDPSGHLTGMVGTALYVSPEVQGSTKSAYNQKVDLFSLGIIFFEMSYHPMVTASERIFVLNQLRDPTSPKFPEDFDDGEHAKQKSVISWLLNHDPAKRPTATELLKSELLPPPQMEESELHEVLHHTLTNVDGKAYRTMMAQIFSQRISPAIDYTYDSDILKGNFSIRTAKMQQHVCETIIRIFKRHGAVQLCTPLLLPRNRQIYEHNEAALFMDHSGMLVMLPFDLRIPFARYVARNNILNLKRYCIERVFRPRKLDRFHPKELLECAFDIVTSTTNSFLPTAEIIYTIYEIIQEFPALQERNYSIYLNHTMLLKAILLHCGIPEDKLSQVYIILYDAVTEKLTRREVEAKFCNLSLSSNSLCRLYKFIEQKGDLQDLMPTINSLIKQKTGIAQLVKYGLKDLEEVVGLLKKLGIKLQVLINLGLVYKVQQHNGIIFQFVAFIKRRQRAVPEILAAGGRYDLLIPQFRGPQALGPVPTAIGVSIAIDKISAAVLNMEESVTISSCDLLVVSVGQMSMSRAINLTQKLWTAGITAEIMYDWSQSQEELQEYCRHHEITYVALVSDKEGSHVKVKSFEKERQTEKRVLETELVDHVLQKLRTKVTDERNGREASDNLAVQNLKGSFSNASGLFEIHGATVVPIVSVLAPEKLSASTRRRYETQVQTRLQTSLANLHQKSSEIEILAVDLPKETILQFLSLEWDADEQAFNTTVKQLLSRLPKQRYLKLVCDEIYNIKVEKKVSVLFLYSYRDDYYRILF

Key:
[1] = biological target: PERK enzyme (Homo sapiens (Human), UniProt Q9NZJ5); assay: Biochemical assay for PERK (coupled pyruvate kinase/lactate dehydrogenase); conditions: read-out: PERK IC50; 1 mM ATP
Method: Activity of PERK kinase was determined spectroscopically using a coupled pyruvate kinase/lactate dehydrogenase assay that continuously monitors the ATP hydrolysis-dependent oxidation of NADH (e.g., Schindler et al. Science (2000) 289: 1938-1942). Assays were conducted in 384-well plates ([…] final volume) using 10 nM PERK (from Beryllium), 0.25 mg/mL Myelin Basic Protein substrate, 1.5 units pyruvate kinase, 2.1 units lactate dehydrogenase, 1 mM phosphoenol pyruvate, 0.28 mM NADH and 1 mM ATP in assay buffer (100 mM Tris, pH 7.5, 15 mM MgCl2, 0.5 mM DTT, 0.004% (w/v) BSA, and 0.004% Triton X-100). Inhibition of PERK was measured by adding serial diluted test compound (final assay concentration of 1% DMSO). A decrease in absorption at 340 nm was monitored continuously for 6 hours at 30° C. on a multi-mode microplate reader (BioTek). The reaction rate was calculated using the 2-3 h time frame. The reaction rate at each concentration of compound was converted to percent inhibition using controls (i.e., reaction with no test compound and reaction with a known inhibitor) and IC50 values were calculated using software routines in Prism (GraphPad software).

[2] = tested on: ATF4 in thapsigargin stimulated CCRF-CEM cells (PERK); assay: CCRF-CEM thapsigargin (TG) ATF4 ELISA; conditions: read-out: CCRF-CEM Thapsigargin ATF4 ELISA; 1 μM thapsigargin
Method: CCRF-CEM leukemia cells (catalog #CCL-116) were obtained from the American Type Culture Collection (ATTC, Manassas, VA). Briefly, cells were grown in RPMI-1640 medium supplemented with 10% heat-inactivated fetal bovine serum (Invitrogen, Carlsbad, CA) and 1% Penicillin/Streptomycin/L-Glutamine at 37° C., 5% CO2, and 95% humidity. Cells were expanded until reaching one million cells per mL at which time they were subcultured or harvested for assay use. One million five hundred thousand cells per well in 1 mL complete growth medium were dispensed into 12-well plates and incubated overnight. A serial dilution of test compound was added and cells were incubated at 37° C., 5% CO2, and 95% for three hours, then 1 μM thapsigargin was added and cells were incubated for an additional hour at 37° C., 5% CO2, and 95%. Cells were lysed then ATF4 levels were measured using an ELISA assay (Proteintech, Rosemont, IL). Absorbance was measured at 450 nm and 544 nM using a Synergy2 or equivalent reader (Biotek, Winooski VT). Data was analyzed using PRISM software (Graphpad, San Diego, CA) to calculate IC50 values.

[3] = biological target: GCN2 kinase (Homo sapiens (Human), UniProt Q9P2K8); assay: Biochemical assay for GCN2 (TR-FRET kinase activity); conditions: read-out: GCN2 IC50; 1 mM ATP
Method: Activity of GCN2 kinase was determined using a TR-FRET kinase activity assay (e.g. Riddle et al. Analytical Biochemistry (2006) 356(1) 108-116). Assays were conducted in 384-well plates (13 μL assay volume) using 2 nM GCN2 (Carna Biosciences), 130 nM GFP-EIf2α (Invitrogen), 0.2 mg/mL E. coli tRNA (sigma) and 1 mM ATP in kinase buffer (Invitrogen). Inhibition of GCN2 was measured by adding serial diluted test compound (final assay concentration of 0.5% DMSO) followed by a 3-hour incubation. Tb-peIF2α (pSer52) antibody (Invitrogen) (2 nM final assay concentration) in kinase buffer containing EDTA (final assay concentration of 20 mM) was added. After a 60 min incubation at room temperature, TR-FRET was monitored using an excitation wavelength of 340 nm and emission wavelengths of 490 nm and 520 nm. The emission ratio (520/490) at each compound concentration of was converted to percent inhibition using controls (i.e., reaction with no test compound and reaction with a known inhibitor) and IC50 values were calculated by fitting a four-parameter sigmoidal curve to the data using Prism (GraphPad software).

[4] = tested on: CCRF-CEM leukemia cells; assay: CCRF-CEM ASNase cell proliferation assay; conditions: read-out: CCRF-CEM ASNase Cell Proliferation; 1 mU/mL ASNase, 72 h
Method: CCRF-CEM leukemia cells (catalog #CCL-116) were obtained from the American Type Culture Collect (ATTC, Manassas, VA). Cells were grown in RPMI-1640 medium supplemented with 10% heat-inactivated fetal bovine serum (Invitrogen, Carlsbad, CA) and 1% Penicillin/Streptomycin/L-Glutamine at 37° C., 5% CO2, and 95% humidity. Cells were expanded until reaching one million cells per mL at which time they are subcultured or harvested for assay use. Ten thousand cells per well in 200 μL RPMI-1640 supplemented with 10% heat-inactivated fetal bovine serum and 1% Penicillin/Streptomycin were dispensed into a 96-well black clear bottom plate. A serial dilution of test compound and 1 mU/mL ASNase was added in triplicate and plates were incubated for 72 h at 37° C., 5% CO2, and 95% humidity. At the end of the incubation, 40 μL of a […] solution of resazurin (Sigma, St. Louis, MO) in PBS was added to each well of the plate and plates were incubated for an additional 6 h at 37° C., 5% CO2, and 95% humidity. Plates were read on a Synergy2 or equivalent reader (Biotek, Winooski VT) using an excitation of 540 nm and an emission of 600 nm. Data was analyzed using GraphPad Prism software (GraphPad, San Diego, CA) to calculate IC50 values.

Cc1c(CO)cc(F)cc1S(=O)(=O)Nc1cccc(-c2cn(C)c3ncnc(N)c23)c1F was tested, and the IC50 [1] was < 100 nM, the IC50 [2] was 100 to 500 nM and the IC50 [3] was 100 to 500 nM. It also gave an IC50 [4] of 500 to 1000 nM.
